Yeast mating assay 2: variants of the scFv Ab-91

The measurements come from Engelhart et al. 2022 (doi:10.1038/s41597-022-01779-4) through the FLAb antibody collection.

Target: peptide PDVDLGDISGINAS, taken from heptad repeat 2 (HR2) of SARS-CoV-2 spike.

Parent scFv Ab-91: VL joined to VH by a (GGGGS)3 linker. Changes lie in the heavy chain CDRs alone.
VL: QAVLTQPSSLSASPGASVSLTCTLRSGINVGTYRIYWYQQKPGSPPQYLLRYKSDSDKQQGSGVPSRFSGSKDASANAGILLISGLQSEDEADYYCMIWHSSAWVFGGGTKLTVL
VH: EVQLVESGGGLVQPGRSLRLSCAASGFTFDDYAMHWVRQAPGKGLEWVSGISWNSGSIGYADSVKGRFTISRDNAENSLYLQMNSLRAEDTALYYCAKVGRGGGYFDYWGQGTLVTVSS

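In library AAYL51, one, two or three CDR residues were substituted; doubles and triples were drawn at random. Affinity was read by AlphaSeq, a pooled yeast mating assay with surface-displayed partners. Binding brings cells together so that they mate, and sequencing counts the barcode pairs among the diploids. Each replicate has its own calibration line, from reference interactions of the BCL2 family. Mating was done three times.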

Each variant is given by its three heavy chain CDRs, as the data file delimits them; those of the parent are GFTFDDYAMH, GISWNSGSIGYADSVK, VGRGGGYFDY.
Numbers give log10(Kd / nM), so 0 is 1 nM and 3 is 1 µM. Smaller is tighter.
The mean shown is taken over the replicates in which the pair was detected.
A pair that was not seen in that replicate is written "n.d."; this usually means weak binding, but a binder can also be missed.
For reference, the parent read 1.86 as the reference entry and 0.88 as a member of this library.

CDR-H1	CDR-H2	CDR-H3	log10 Kd, replicates	mean log10 Kd (nM)	control signals
GFLFDDTAMH	GISWNSGSIGYADSVK	VGRGGGYFDM	2.60 / 2.68 / 2.37	2.55	3 of 9 (4.86)
GFTFDDYFMH	GISTNSGSMGYADSVK	VGRGGGYFDY	n.d. / n.d. / n.d.	n.d.	2 of 9 (4.40)
GFTFDDYAMH	GITWNSGSNGYADSVF	VGRGGGYFDY	5.04 / 4.67 / n.d.	4.85	2 of 9 (4.14)
GFDFDDDAMH	GISWNSGSIGYADSVK	VGRGWGYFDY	3.68 / n.d. / n.d.	3.68	2 of 9 (3.75)
GFTFDDYAMH	GISWNSGSIGYADSKK	VGRSGGYFDY	n.d. / n.d. / n.d.	n.d.	2 of 9 (5.62)
KFTFDDYAMH	GISWNSGSIGYADSVL	KGRGGGYFDY	4.93 / n.d. / n.d.	4.93	1 of 9 (3.40)
GFTFDDSALH	GISWNSGSIIYADSVK	VGRGGGYFDY	n.d. / n.d. / n.d.	n.d.	1 of 9 (4.76)
GFIFDDVAMH	GISWNSGSCGYADSVK	VGRGGGYFDY	2.27 / 2.22 / 2.40	2.30	2 of 9 (4.53)
NFTFYDYAMH	GISWNSGSIGYADQVK	VGRGGGYFDY	2.89 / n.d. / n.d.	2.89	1 of 9 (3.31)
GFTFDDYAMK	GISWNSGSEGPADSVK	VGRGGGYFDY	5.59 / n.d. / n.d.	5.59	5 of 9 (5.21)
GFTFDDCSMH	GISWNSGSIGYADSVL	VGRGGGYFDY	3.49 / 3.68 / 3.03	3.40	2 of 9 (4.65)
GFTIDDYAMH	GISWNSGSIGTADSFK	VGRGGGYFDY	1.93 / 1.86 / 1.31	1.70	3 of 9 (5.15)
GHTFDDYAMH	GRSWNSGSIGYADSVK	VGRGGGKFDY	n.d. / 5.40 / n.d.	5.40	4 of 9 (4.28)
GFTFCDYAMH	GISWNSGSIGYVDSVK	VGRGSGYFDY	4.46 / 4.82 / 4.69	4.66	5 of 9 (5.26)
GFTFDDYAMH	GISWNSGSIGYADSVK	VGRGGGYVWY	n.d. / n.d. / n.d.	n.d.	0 of 9
PFTFDDYAMH	GISWNSGSIWYADSVK	VLRGGGYFDY	4.60 / 4.98 / n.d.	4.79	4 of 9 (4.43)
GFTFDDYAMH	GISWNSGSIGYADSVK	VGRGGGLFGY	n.d. / n.d. / n.d.	n.d.	1 of 9 (3.89)
SFTFVDYAMH	GISWNSGSIGYADSVK	VGRGGHYFDY	n.d. / n.d. / n.d.	n.d.	3 of 9 (4.14)
GFTFDDYAMH	GISENSGSIGYADSVK	VGRGWGYFGY	n.d. / n.d. / n.d.	n.d.	0 of 9
GFTFDDYAGH	GISWNSLSIGYADSVK	VGRGGGYEDY	n.d. / n.d. / n.d.	n.d.	0 of 9
GFTFDDYAMH	GISRNSGSIGYADSVK	VGRGGGYFDY	2.87 / 3.05 / 1.81	2.58	1 of 9 (3.72)
ITTFDDYAMH	GISWNSGSIGYADSVK	VARGGGYFDY	n.d. / n.d. / n.d.	n.d.	0 of 9
GTTFDDYAMH	GISWTSGSIGYADSIK	VGRGGGYFDY	3.78 / n.d. / n.d.	3.78	1 of 9 (3.54)
GFTFDDYAMH	GASWNSGSIGYADTVK	VWRGGGYFDY	n.d. / n.d. / n.d.	n.d.	0 of 9
GFTPDDYAMW	VISWNSGSIGYADSVK	VGRGGGYFDY	4.82 / n.d. / n.d.	4.82	0 of 9
GFTFDDTAMH	GISWNSGSIGYVDSVP	VGRGGGYFDY	4.22 / 4.70 / n.d.	4.46	6 of 9 (4.60)
GFTFDRYAMH	GISWNSGSIGYAMSLK	VGRGGGYFDY	1.68 / 1.87 / 1.71	1.75	1 of 9 (4.99)
GFTFDDYHMH	KISWNSGSIGYADSVD	VGRGGGYFDY	4.80 / 4.49 / 5.74	5.01	6 of 9 (5.17)
GFTFDDYAMH	GISWNSGSIGYADSVK	VGRGGHYFDY	n.d. / n.d. / n.d.	n.d.	0 of 9
GFTADDYAMH	GISGNSGSPGYADSVK	VGRGGGYFDY	n.d. / n.d. / n.d.	n.d.	0 of 9
GFTFDDSAMH	GISWNSGSIGYADSVK	VVRMGGYFDY	3.41 / n.d. / n.d.	3.41	2 of 9 (4.32)
GFTFDDYAMH	GNSANSGSIGYADSVK	VGRGGVYFDY	n.d. / n.d. / n.d.	n.d.	4 of 9 (4.12)
GFWFDDYTMH	GISWNSGSIGYADQVK	VGRGGGYFDY	3.24 / 5.37 / n.d.	4.30	2 of 9 (4.65)
GFMFDDYAMH	GISWNSGSIGYAFSVK	VGRGGGYQDY	n.d. / n.d. / n.d.	n.d.	0 of 9
GFTFCDYAMH	GISWVSGSIGYADSVK	VGRGGGYFDY	3.67 / n.d. / 4.13	3.90	1 of 9 (5.59)
GFTFDDSAIH	GISWNSGSIGYADSVK	WGRGGGYFDY	4.01 / 3.80 / 5.24	4.35	5 of 9 (4.56)
GFTFDDYAMH	GPSWNSGSIGYADSVK	VGRGFGYFDY	n.d. / n.d. / n.d.	n.d.	0 of 9
GFAFDDYATH	GISWNSGSIGYADSVK	VGRGDGYFDY	n.d. / 4.44 / n.d.	4.44	2 of 9 (5.22)
GFTFDDPGMH	GISWNSGSIGYADSVK	VGRGGGYFTY	n.d. / 4.21 / n.d.	4.21	1 of 9 (3.40)
GFTFDDYAMH	GFSWNSHSIGYADSVK	VGRGTGYFDY	n.d. / n.d. / n.d.	n.d.	1 of 9 (2.97)
GFTFDDYAMH	GISWNSGSIGYADSVT	VGRGRGYFDY	n.d. / n.d. / 3.05	3.05	0 of 9
GFTFDDYAMH	GISWNSGSIREADSVK	EGRGGGYFDY	n.d. / n.d. / n.d.	n.d.	0 of 9
GFTFDDYADH	QISWNSGSIGYADSVK	VGRGGVYFDY	n.d. / n.d. / n.d.	n.d.	1 of 9 (3.26)
GFTFDDYAMH	EISWNSGSIGYEDSVK	VGRGGRYFDY	n.d. / n.d. / n.d.	n.d.	4 of 9 (4.40)
GFTFDDYAMH	GISWNSGSIGYADNVK	VGRGAHYFDY	0.97 / 1.11 / 0.54	0.87	3 of 9 (4.25)
GFTFDDYAMD	GISWNSGSEGYADSVK	VGRGGGYFDY	2.45 / 2.43 / 2.26	2.38	8 of 9 (4.70)
GFTFDDYAMH	GIYWNSGSIGYADSVK	NGRDGGYFDY	4.23 / n.d. / n.d.	4.23	0 of 9
GFTFDDYADH	GISWNSGSICYADSVK	VGRGKGYFDY	n.d. / n.d. / n.d.	n.d.	0 of 9
GFTFDDYAMH	GIIWNSGSIGYADSVK	VGRGGDYFTY	n.d. / n.d. / n.d.	n.d.	4 of 9 (4.09)
GFFFDDYAMH	GISWNSGSIGIADSVK	VGRGGGYFRY	n.d. / n.d. / n.d.	n.d.	2 of 9 (3.12)
GFTFDDYAMP	GSSWNSDSIGYADSVK	VGRGGGYFDY	n.d. / n.d. / n.d.	n.d.	0 of 9

The 5 strongest on average among those seen in every replicate, once more:

{"CDR-H1": "GFTFDDYAMH", "CDR-H2": "GISWNSGSIGYADNVK", "CDR-H3": "VGRGAHYFDY", "log10 Kd, replicates": "0.97 / 1.11 / 0.54", "mean log10 Kd (nM)": "0.87", "control signals": "3 of 9 (4.25)"}
{"CDR-H1": "GFTIDDYAMH", "CDR-H2": "GISWNSGSIGTADSFK", "CDR-H3": "VGRGGGYFDY", "log10 Kd, replicates": "1.93 / 1.86 / 1.31", "mean log10 Kd (nM)": "1.70", "control signals": "3 of 9 (5.15)"}
{"CDR-H1": "GFTFDRYAMH", "CDR-H2": "GISWNSGSIGYAMSLK", "CDR-H3": "VGRGGGYFDY", "log10 Kd, replicates": "1.68 / 1.87 / 1.71", "mean log10 Kd (nM)": "1.75", "control signals": "1 of 9 (4.99)"}
{"CDR-H1": "GFIFDDVAMH", "CDR-H2": "GISWNSGSCGYADSVK", "CDR-H3": "VGRGGGYFDY", "log10 Kd, replicates": "2.27 / 2.22 / 2.40", "mean log10 Kd (nM)": "2.30", "control signals": "2 of 9 (4.53)"}
{"CDR-H1": "GFTFDDYAMD", "CDR-H2": "GISWNSGSEGYADSVK", "CDR-H3": "VGRGGGYFDY", "log10 Kd, replicates": "2.45 / 2.43 / 2.26", "mean log10 Kd (nM)": "2.38", "control signals": "8 of 9 (4.70)"}

As a blank, each scFv also met three strains without target: over library AAYL51, 21% of these pairings were detected, typically at 4.54 and seldom below 3.26. Also given: how often the same scFv was detected with the empty control strains, with their mean in brackets.